Reference: patent US20230183748A1, “Use of FOXP3 Enhancers to Modulate Regulatory T Cells” (St. Jude Children's Research Hospital, Inc., priority 2021, published 2023)

Tested on: Foxp3 expression in iTreg cells
Assay: Stability of Foxp3 expression in iTreg cells in vitro
Type: cell-based, mouse
Details: without ASC treatment; high levels of IL-2; WT and ΔCNS3 iTreg cells (not ΔCNS0 or ΔCNS0,3); 4 days in fresh media without TGF-β
Protocol: Treg Cell Induction and Stability Assay. Induction of Treg cell differentiation in vitro was conducted according to established protocols (Feng et al. (2015) Nature 528:132-136; Yue et al. (2016) J. Exp. Med. 213:377-397). Briefly, cell culture plates or dishes were precoated with 1 μg/ml anti-CD3 (Bio X Cell) and anti-CD28 (Bio X Cell) antibodies in PBS at 37° C. for 2 hours and washed with PBS once before cell culture. CD4 Tn cells were grown in complete RPMI1640 supplemented with 100 U/ml recombinant human IL-2 (PeproTech) and 1 ng/ml recombinant human TGF-β (R&D Systems) with or without 0.25 mM ascorbic acid (ASC)-2-phosphate (Sigma) for 4 days.
To assess the stability of Foxp3 expression in vitro, in vitro Treg (iTreg) cells, sorted based on GFP-Foxp3 expression after 4 days of induction, were further cultured on plates coated with both anti-CD3 (1 μg/ml) and anti-CD28 (1 μg/ml) antibodies and either recombinant human IL-2 or 25 μg/ml IL-2 neutralization antibodies (Bio X Cell) for 4 days more. […]
To test whether ΔCNS0,3 could also destabilize Foxp3 expression, the stability of Foxp3 expression was assessed in control and ASC-treated iTreg cells, which stabilize Foxp3 expression through Tet-dependent DNA demethylation (Yue et al. (2016) J. Exp. Med. 213:377-397). […]

IL-2: recombinant human IL-2 (PeproTech) added to T cell culture
iTreg cells in which Foxp3 expression was maintained: 40%-50%
